Consider five molecules from patent US6262064A, “Octahydrobenzo[f]quinoline-based receptor agonists and antagonists” (priority 1999, dated 2001).

Chains of the proteins cited; added tags and fusions are not shown.
UniProt P14842, whole entry: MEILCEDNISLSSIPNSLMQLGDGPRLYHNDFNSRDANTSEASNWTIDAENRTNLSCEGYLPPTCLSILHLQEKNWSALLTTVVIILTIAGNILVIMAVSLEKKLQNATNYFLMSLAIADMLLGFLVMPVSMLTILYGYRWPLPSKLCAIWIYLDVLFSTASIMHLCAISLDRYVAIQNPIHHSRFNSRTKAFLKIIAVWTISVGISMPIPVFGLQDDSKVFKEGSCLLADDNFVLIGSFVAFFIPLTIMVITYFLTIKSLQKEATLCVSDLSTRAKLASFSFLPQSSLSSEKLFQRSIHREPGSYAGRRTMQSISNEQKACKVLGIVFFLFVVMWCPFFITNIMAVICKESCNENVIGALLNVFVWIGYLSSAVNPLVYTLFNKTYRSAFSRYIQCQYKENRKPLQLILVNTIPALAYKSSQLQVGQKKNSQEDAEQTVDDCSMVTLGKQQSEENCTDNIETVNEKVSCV
UniProt P61169, whole entry: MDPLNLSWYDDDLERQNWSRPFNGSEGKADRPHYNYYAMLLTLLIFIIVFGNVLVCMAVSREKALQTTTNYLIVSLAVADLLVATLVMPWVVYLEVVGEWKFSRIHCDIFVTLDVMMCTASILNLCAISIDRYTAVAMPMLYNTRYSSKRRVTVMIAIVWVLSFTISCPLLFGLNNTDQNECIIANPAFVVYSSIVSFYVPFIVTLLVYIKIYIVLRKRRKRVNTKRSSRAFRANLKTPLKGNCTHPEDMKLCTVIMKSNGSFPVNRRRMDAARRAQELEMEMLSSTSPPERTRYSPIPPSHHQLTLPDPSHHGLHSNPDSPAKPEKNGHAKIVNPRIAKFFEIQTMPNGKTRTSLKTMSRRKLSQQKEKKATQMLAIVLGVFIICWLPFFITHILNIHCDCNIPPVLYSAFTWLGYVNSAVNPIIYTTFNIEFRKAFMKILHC
UniProt P18901, whole entry: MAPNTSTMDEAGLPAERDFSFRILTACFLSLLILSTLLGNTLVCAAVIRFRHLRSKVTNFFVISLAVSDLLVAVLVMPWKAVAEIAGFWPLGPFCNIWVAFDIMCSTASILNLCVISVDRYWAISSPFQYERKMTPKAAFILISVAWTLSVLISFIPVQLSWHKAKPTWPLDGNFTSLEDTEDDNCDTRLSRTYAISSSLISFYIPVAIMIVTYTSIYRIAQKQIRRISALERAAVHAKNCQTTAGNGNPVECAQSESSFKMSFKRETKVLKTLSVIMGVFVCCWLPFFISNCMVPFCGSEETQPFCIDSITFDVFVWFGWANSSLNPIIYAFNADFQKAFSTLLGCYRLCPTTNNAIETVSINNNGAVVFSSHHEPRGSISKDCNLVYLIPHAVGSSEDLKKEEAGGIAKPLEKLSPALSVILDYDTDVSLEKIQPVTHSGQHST

In test [1] the target is T1, 5HT2 serotonin receptor (Rattus norvegicus, UniProt P14842).
T1 construct: rat cortical membranes; from tissue; host or cells: rat cortex membranes
The experiment in a line: Serotonin (5HT2) binding assay ([3H]Ketanserin). The settings on record: Ki of reference compounds. The protocol: The final ligand concentration was 1.0 nM.

The target of test [2] is T2, D2 dopamine receptor (Rattus norvegicus, UniProt P61169).
T2 construct: rat striatal membranes; from tissue; host or cells: rat striatum membranes
In words: Dopamine D2 binding assay ([3H]Sulpiride). The method, then:
The final ligand concentration was 0.5 nM.

Test [3] concerns the target alpha2-adrenergic receptor. The experiment in a line: Alpha2-adrenergic (non-selective) binding assay ([3H]RX 781094). Further details: species or system rat. As to conditions: Table V; read-out: Ki of reference compounds, alpha2-adrenergic.
The target in test [4] is T3, D1 dopamine receptor (Rattus norvegicus, UniProt P18901).
T3 construct: rat striatal membranes; from tissue; host or cells: rat striatum membranes
In words: Dopamine D1 binding assay ([3H]SCH 23390). The method, then: The final radioligand concentration was 0.5 nM.

Each structure is given as a SMILES string. pKi: −log10 of the molar value. Where two headings read alike, the source gives them in different places.

The term pKi denotes the negative decadic logarithm of the Ki, by convention in mol/L. Turning to `CCN(CC)C(=O)[C@@H]1C=C2c3cccc4[nH]cc(c34)C[C@H]2N(C)C1` [D-LSD, reference compound], the pKi in test [1] is 8.68.
Regarding `CCN(CC)CCNC(=O)c1cc(Cl)c(N)cc1OC` [Metoclopramide, reference compound], the pKi in test [2] (Table II, read-out: Ki of reference compounds, D2) was 7.99.
For the molecule `COc1cc2nc(N3CCN(C(=O)c4ccco4)CC3)nc(N)c2cc1OC` [Prazosin, reference compound], in test [3], the pKi was 7.54.
In test [2], `Oc1cc2c(cc1O)C(c1ccccc1)CNCC2` (centres unmarked) [SKF 38393, reference compound] gave a pKi of 6.32.
As to `O=C(CCCN1CCC2(CC1)C(=O)NCN2c1ccccc1)c1ccc(F)cc1` [Spiperone, reference compound], the pKi in test [4] was 10.00.
